The assay deals with T1, 5-HT1B (Rattus norvegicus, UniProt P28564).
T1 construct: from tissue
Put plainly: 5-HT1B receptor binding in vitro (3H-5-HT, 50 nM 8-OH-DPAT included). How it is done: Compounds of the general formula (I) were tested for binding to 5-HT receptors and compared with known ligands by the following procedure:
Rat brain tissue (as specified in the table hereinafter) was homogenized using a Polytron homogenizer. The final pellet was resuspended in 125 vol (tissue wet weight) of buffer.
In all assays incubation was carried out for 10 min at 37° C.
Labelling of the 5-HT1B receptor was complicated by the fact that the available ligand ^3 H-5-HT is nonselective.
Detailed conditions for the receptor binding assay in vitro are tabulated below.

Sequences of proteins named here, by UniProt entry; tags and fusion partners are left off.
UniProt P28564, whole entry: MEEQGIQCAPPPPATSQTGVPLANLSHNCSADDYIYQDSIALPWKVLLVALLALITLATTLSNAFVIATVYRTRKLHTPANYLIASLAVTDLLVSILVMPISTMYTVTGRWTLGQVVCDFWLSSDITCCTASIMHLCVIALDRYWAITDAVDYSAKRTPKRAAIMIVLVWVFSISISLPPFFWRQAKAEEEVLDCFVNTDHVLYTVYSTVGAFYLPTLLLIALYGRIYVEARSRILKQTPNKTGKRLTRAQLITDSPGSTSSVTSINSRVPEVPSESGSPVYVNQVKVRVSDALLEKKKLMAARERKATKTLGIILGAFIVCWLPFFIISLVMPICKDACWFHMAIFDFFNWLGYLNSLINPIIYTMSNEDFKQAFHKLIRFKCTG

Regarding `CC1(C)CC(=O)N(CCCCN2CCN(c3ncccn3)CC2)C(=O)C1` [Gepirone, reference compound], the IC50 (commonly the concentration that gives 50% inhibition) is greater than 1000 nM.

The values are drawn from US5250538A, “Indole derivatives and their use” (Novo Nordisk A/S, priority 1990, dated 1993).
